{"sequences": {"note": "The chains behind the UniProt entries cited, without tags or fusion partners. Where a name states a change or a piece, a line headed by the entry shows the natural chain unless it says otherwise.", "UniProt P43116": "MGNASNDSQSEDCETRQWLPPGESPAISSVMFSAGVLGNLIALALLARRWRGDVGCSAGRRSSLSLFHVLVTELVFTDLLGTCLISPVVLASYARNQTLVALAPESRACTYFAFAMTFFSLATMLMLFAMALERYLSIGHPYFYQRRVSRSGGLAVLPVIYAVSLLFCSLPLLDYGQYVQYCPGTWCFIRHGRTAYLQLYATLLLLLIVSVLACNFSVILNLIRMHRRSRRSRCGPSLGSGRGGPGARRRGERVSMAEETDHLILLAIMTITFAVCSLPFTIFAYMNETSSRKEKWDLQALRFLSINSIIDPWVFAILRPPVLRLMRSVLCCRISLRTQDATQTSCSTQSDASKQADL"}, "source": "patent US7622475B2", "about": "“EP2 agonists” (Pfizer Inc, priority 2006, dated 2009)", "origin": "cited, not measured here", "target": "EP2 (Homo sapiens, UniProt P43116)", "parameters": "expressed in transfected cells; host or cells: COS cells", "settings": "COS cells transfected with the human EP2 receptor; read-out: EC50 for the stimulation of cAMP; cited from earlier work"}
{"smiles": "CCCCC[C@H](O)/C=C/[C@H]1[C@H](O)CC(=O)[C@@H]1C/C=C\\CCCC(=O)O", "note": "[PGE2, prostaglandin E2]", "values": [{"measurement": "EC50", "result": "~43", "unit": "nM"}]}
